According to PMC5225183, “Fingerprinting of neurotoxic compounds using a mouse embryonic stem cell dual luminescence reporter assay” (Archives of Toxicology, 2016):

Columns and labels:
CGR8-2Luc ESCs = conditions: undifferentiated ESCs, 48 h exposure, PI assay (cytotoxicity)
[1] = test system: Tubulin α1 (Tα1) promoter; conditions: undifferentiated ESCs, 48 h exposure; lowest tested concentration with statistically significant decrease
EF1α promoter [2] = conditions: undifferentiated ESCs, 48 h exposure
EF1α promoter [3] = test system: EF1α promoter
[4] = test system: Tubulin α1 (Tα1) promoter; conditions: ESC-derived neurons, 48 h exposure
ESC-derived neurons = conditions: 48 h exposure, PI assay (cytotoxicity)
[5] = Table S1, three classes; ref per compound in the footnotes of Table S1; cited from earlier work
[6] = ref Zimmer et al. ([2014]); cited from earlier work
[7] = test system: ESCs and ESC-derived neurons; conditions: reporter activity changes in the non-cytotoxic concentration range; highest possible number 4

IFN-β: Activation of Janus kinase and Stat1/2; used for relapsing/remitting multiple sclerosis; Peptide/Protein
LOAEL ESC DNA (CGR8-2Luc ESCs): >0.0002 µM | LOAEL ESC Tα1 [1]: >0.0002 µM | LOAEL ESC EF1α (EF1α promoter [2]): >0.0002 µM | effect on general promoter activity in neurons (EF1α promoter [3]): selectively increased | LOAEL Neurons EF1α (EF1α promoter [3]; ESC-derived neurons, 48 h exposure): >0.0002 µM | LOAEL Neurons Tα1 [4]: >0.0002 µM | LOAEL Neurons DNA (ESC-derived neurons): >0.0002 µM | class based on clinical evidence for neurotoxicity [5]: Possibly (developmental) | Concentration in humans [6]: 0.4*10^−6–7.5*10^−3k µM | Number of non-cytotoxic changes [7]: 0
